Results: PubChem BioAssay AID1920062 (Sanford-Burnham Center for Chemical Genomics, 2024)
The entries are a selection whose mix differs from that of the whole data set. Active and inactive are the calls of the source.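 The calls were made as follows: active = activation at 10 µM reaching about 35% in either raw or pattern-adjusted values (limit read from the data); inactive = the rest.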

The chains behind the UniProt entries cited, without tags or fusion partners. Where a name states a change or a piece, a line headed by the entry shows the natural chain unless it says otherwise.
UniProt P20594: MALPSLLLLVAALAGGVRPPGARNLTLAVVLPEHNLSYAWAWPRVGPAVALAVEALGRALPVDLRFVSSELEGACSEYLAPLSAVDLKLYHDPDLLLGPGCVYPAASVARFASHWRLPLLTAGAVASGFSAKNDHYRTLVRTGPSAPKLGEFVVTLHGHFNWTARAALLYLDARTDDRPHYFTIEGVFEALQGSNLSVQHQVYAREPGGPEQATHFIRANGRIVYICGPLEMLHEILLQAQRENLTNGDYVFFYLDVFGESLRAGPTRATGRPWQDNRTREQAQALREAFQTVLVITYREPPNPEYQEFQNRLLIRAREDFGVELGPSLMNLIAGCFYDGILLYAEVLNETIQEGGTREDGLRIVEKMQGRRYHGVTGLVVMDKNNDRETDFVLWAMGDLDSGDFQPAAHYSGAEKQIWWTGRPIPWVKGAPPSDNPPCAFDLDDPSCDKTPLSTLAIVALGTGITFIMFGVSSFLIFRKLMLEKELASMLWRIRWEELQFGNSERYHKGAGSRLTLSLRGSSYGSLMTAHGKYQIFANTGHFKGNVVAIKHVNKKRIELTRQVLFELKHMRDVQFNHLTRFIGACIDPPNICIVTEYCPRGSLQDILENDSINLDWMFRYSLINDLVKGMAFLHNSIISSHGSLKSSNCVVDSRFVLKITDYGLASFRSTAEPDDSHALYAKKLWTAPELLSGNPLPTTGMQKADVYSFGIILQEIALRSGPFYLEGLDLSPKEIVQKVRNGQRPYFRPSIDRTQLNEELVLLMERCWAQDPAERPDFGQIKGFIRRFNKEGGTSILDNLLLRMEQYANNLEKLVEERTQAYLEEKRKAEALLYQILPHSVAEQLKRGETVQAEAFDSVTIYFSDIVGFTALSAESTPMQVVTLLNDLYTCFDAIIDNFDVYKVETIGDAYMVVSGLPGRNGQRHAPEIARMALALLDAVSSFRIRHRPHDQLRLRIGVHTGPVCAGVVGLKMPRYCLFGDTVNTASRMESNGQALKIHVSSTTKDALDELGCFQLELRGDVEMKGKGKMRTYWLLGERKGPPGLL

Molecular target: Atrial natriuretic peptide receptor 2 (Homo sapiens) (UniProt P20594)
Assay: GC-B stimulated cGMP production enhancers – HEK293 GC-B cells, cGMP TR-FRET, EC30 CNP, primary screen (AID 1920062)
Settings: at 10 µM, stronger effect = higher value, 0% at EC30 CNP, 100% saturating CNP

| Structure (SMILES) | activation |
| --- | --- |
| CC(=O)Nc1ccc(Oc2c([N+](=O)[O-])cc([N+](=O)[O-])cc2[N+](=O)[O-])cc1 | inactive: -2.06% |
| CC(=O)Nc1ccc([As](=O)(O)O)c(O)c1 | inactive: 0.78% |
| C[C@@H]1C=CCP(=O)(Oc2ccccc2)O1 (some centres not stated) | inactive: 1% |
| C[C@H]1OP(=O)(Oc2ccccc2)C[C@@H]2O[C@@H]21 (some centres not stated) | inactive: 0.69% |
| Cc1ccccc1CN(C)C(=O)COC(=O)C(O)(c1ccccc1)c1ccccc1 | inactive: 2.21% |
| COC(=O)C1(C)COP(=O)(NCc2ccccc2)OC1 (configuration not stated) | inactive: -0.65% |
| N#C/C(=C\c1ccc(N(CCBr)CCBr)cc1)C(N)=O | inactive: -1.72% |
| CC(=O)c1ccc(N2CC2c2ccncc2)cc1 (configuration not stated) | inactive: 6.59% |
| CC(C)(C)C(=O)NC(Sc1ccccc1)C(Cl)(Cl)Cl (configuration not stated) | inactive: 8.07% |
| CCc1cc(O)c([N+](=O)[O-])c(C)c1[N+](=O)[O-] | inactive: 4.19% |
| CCOc1ccc(C2=NCC(CBr)S2)cc1 (configuration not stated) | inactive: 2.69% |
| O=P1(Nc2nc3ccc(Cl)cc3s2)COc2ccccc2O1 (configuration not stated) | inactive: -1.61% |
| CN(C)C(=O)Oc1noc2ccccc12 | inactive: -1.09% |
| O=c1c2cc([N+](=O)[O-])ccc2[nH]c2c([N+](=O)[O-])cc([N+](=O)[O-])cc12 | inactive: 8.18% |
| Cc1ccccc1OP(=O)(Nc1ccccn1)Oc1ccccc1C | inactive: 5.18% |
| CC(NC(=O)COC(=O)C(O)(c1ccccc1)c1ccccc1)c1ccccc1 (configuration not stated) | inactive: -2.77% |
| CCC(=O)N1C2C3N(C(=O)CC)C1C1N(C(=O)CC)C(C(N1C(=O)CC)N3C(=O)CC)N2C(=O)CC | inactive: 4.66% |
| O=C(OC1CN2CCC1CC2)c1ccccc1 (configuration not stated) | inactive: -2.3% |
| Cc1ccc(OP(=O)(Nc2ccccn2)Oc2ccc(C)cc2)cc1 | inactive: 2.5% |
| CC(=O)NC(SC(=S)N(CC(C)C)CC(C)C)C(Cl)(Cl)Cl (configuration not stated) | inactive: -7.2% |
| COC(=O)c1cc2c(s1)N=C(c1ccccc1)N(C)P2(=O)N1CCOCC1 (configuration not stated) | inactive: -3.06% |
| O=P1(N(CCCl)CCCl)OCCC2CCCCN21 (configuration not stated) | inactive: -4.61% |
| Cc1ccc(NP(=O)(Oc2cccc(C)c2)Oc2cccc(C)c2)nc1 | inactive: -3.49% |
| c1ccc(-c2nn[nH]n2)c(-c2nn[nH]n2)c1 | inactive: 0.39% |
| CCNC(=S)/N=C(\N)N[N+](=O)[O-] | inactive: 1.04% |
| O=C(NC1CCS(=O)(=O)C1)NP(=S)(Oc1ccccc1)Oc1ccccc1 (configuration not stated) | inactive: 2.6% |

| Structure (SMILES) | activation |
| --- | --- |
| O=C(OC1CN2CCC1CC2)c1cccc(Cl)c1 (configuration not stated) | inactive: 4.59% |
| Nc1ccc([As](=O)(O)c2ccc([N+](=O)[O-])cc2)cc1 | inactive: -2.89% |
| C(Cc1nn[nH]n1)Cc1nn[nH]n1 | inactive: 2.2% |
| C/C(N)=N\P(=O)(OCc1ccccc1)OCc1ccccc1 | inactive: -13.8% |
| O=[As](O)(c1ccccc1)c1ccc(O)cc1 | inactive: 0.88% |
| O=[N+]([O-])c1ncn(CCn2cnc([N+](=O)[O-])n2)n1 | inactive: 2.8% |
| CC(=O)NC(SC(=S)N(C)C)C(Cl)(Cl)Cl (configuration not stated) | inactive: 0.33% |
| C[C@H]1OP(=O)(Oc2ccccc2)[C@H](O)[C@H](O)[C@H]1N=[N+]=[N-] (some centres not stated) | inactive: 4.02% |
| O=P(Nc1nc2ccccc2s1)(c1ccccc1)c1ccccc1 | inactive: -2.82% |
| O=P(Nc1ccccn1)(c1ccc(Br)cc1)c1ccc(Br)cc1 | inactive: -19.3% |
| CN(C)C1(CNC(=O)c2ccc(Cl)c(S(N)(=O)=O)c2)CCCCC1 | inactive: 0.87% |
| Nc1ccc(CCCCOc2ccccc2)cc1 | inactive: -0.5% |
| COc1ccc(N)c([N+](=O)[O-])c1[N+](=O)[O-] | inactive: -2.53% |
| c1nnnn1CCn1cnnn1 | inactive: -0.04% |
| CC(C)C(=O)NC(Sc1ccccc1)C(Cl)(Cl)Cl (configuration not stated) | inactive: 3.03% |
| O=P(Nc1nccs1)(c1ccccc1)c1ccccc1 | inactive: -3.67% |
| c1cc(-c2nn[nH]n2)ccc1-c1nn[nH]n1 | inactive: -0.01% |
| CC1CCN(C(=O)Oc2c(Cl)cc(Cl)c3cccnc23)CC1 | inactive: -10.7% |
| CN(C)C(=O)OCCc1n(C)cc[n+]1C | inactive: -0.69% |
| CC(C)=N/N=C(\N)N[N+](=O)[O-] | inactive: -0.59% |
| CC(C)c1nc(Nc2ccccc2)n(P(=O)(N(C)C)N(C)C)n1 | inactive: -0.15% |
| CCN(/C(=N/P(=O)(N1CCOCC1)N1CCOCC1)N1CCOCC1)c1ccc(OC)cc1 | inactive: 1.71% |
| C[N+]1=C2C=CC=CC=C2SC12C([N+](=O)[O-])=CC([N+](=O)[O-])=C[C-]2[N+](=O)[O-] (configuration not stated) | inactive: 3.64% |
| Nc1ccc([As](=O)(O)c2ccc(N)cc2)cc1 | inactive: 2.43% |
| CCc1nc2c(n1)c1c(non1O)c1c2no[n+]1[O-] | inactive: 8.28% |
| O=[N+]([O-])c1cc([N+](=O)[O-])c(CCNc2ccccc2)c([N+](=O)[O-])c1 | inactive: -2.98% |

| Structure (SMILES) | activation |
| --- | --- |
| Cc1ccc(NP(=O)(Oc2ccccc2)Oc2ccccc2)nc1 | inactive: -0.84% |
| O=[N+]([O-])c1cccc2n[nH]nc12 | inactive: 0.3% |
| CC(=O)N1C2C3N(C(C)=O)C1C1N(C(C)=O)C(C(N1C(C)=O)N3C(C)=O)N2C(C)=O | inactive: 2.15% |
| COc1ccc(C2=NCC(CBr)S2)cc1 (configuration not stated) | inactive: 2.3% |
| O=C(O)CNc1ccc([As](=O)(O)O)cc1 | inactive: -3.81% |
| O=[N+]([O-])c1cccc(NC2=NCC(CBr)S2)c1 (configuration not stated) | inactive: 3.93% |
| COC(=O)C1(C)COP(=O)(Nc2ccccc2)OC1 (configuration not stated) | inactive: 2.63% |
| O=[N+]([O-])c1ncn(CCn2ncnc2[N+](=O)[O-])n1 | inactive: 2.69% |
| CC(C)(C)C(=O)NC(Sc1ccncn1)C(Cl)(Cl)Cl (configuration not stated) | inactive: 2.86% |
| O=C(Nc1cc([As](=O)(O)O)ccc1O)c1ccccc1 | inactive: -4.12% |
| O=P1(N(CCCl)CCCl)OCCCS1 (configuration not stated) | inactive: 2.44% |
| Nc1cccc2ccc([As](=O)(O)O)cc12 | inactive: -0.55% |
| CCN(N=Nc1nonc1N)c1nonc1N | inactive: -2.18% |
| CN(C(=O)Cc1ccccc1)C1CC[C@@]2(CCCO2)C[C@@H]1N1CCCC1 (some centres not stated) | inactive: -2.12% |
| CCn1c(=O)n(C2CCN(CC3CCCCCCC3)C[C@H]2CO)c2ccccc21 (some centres not stated) | inactive: 0.27% |
| Cc1ccc(NP(=O)(Oc2ccccc2F)Oc2ccccc2F)nc1 | inactive: 6.59% |
| CN(C(=O)Cc1ccc(Cl)c(Cl)c1)[C@H]1CCCC[C@@H]1N1CCCC1 | inactive: -1.15% |
| CCOP(=O)(Nc1ccccc1)OCC | inactive: -6.41% |
| Cc1cc(SC(NC(=O)c2ccc(F)cc2)C(Cl)(Cl)Cl)ncn1 (configuration not stated) | inactive: -3.06% |
| CN(C)P(=O)(N(C)C)n1c(Nc2ccccc2)nnc1-c1ccccc1 | inactive: -1.57% |
| O=P(Nc1nc2ccc(Cl)cc2s1)(c1ccccc1)c1ccccc1 | inactive: 4.78% |
| CCCC1OP(N)(=O)OCC1CC (configuration not stated) | inactive: 3.37% |
| O=C(O)c1ccccc1[As](=O)(O)O | inactive: -0.48% |
| CC(=O)Nc1ccc([As](=O)(O)O)cc1 | inactive: 2.84% |
| O=C(NC(Sc1ccncn1)C(Cl)(Cl)Cl)c1ccccc1 (configuration not stated) | inactive: 2.43% |
| Oc1ccccc1CNc1ccccn1 | inactive: -2.6% |

| Structure (SMILES) | activation |
| --- | --- |
| CC(C)CC(=O)NC(Sc1ccc(Cl)cc1)C(Cl)(Cl)Cl (configuration not stated) | inactive: -0.14% |
| Nc1cc(N)c2nonc2c1[N+](=O)[O-] | inactive: 3.68% |
| Clc1ccc(Cl)c(NC2=NCC(CBr)S2)c1 (configuration not stated) | inactive: -1.32% |
| CN1CCCC(OC(=O)C(c2ccccc2)c2ccccc2)C1 (configuration not stated) | inactive: -10.4% |
| Cc1ccc(OP(=O)(Nc2nccs2)Oc2ccc(C)cc2)cc1 | inactive: -0.24% |
| COc1ccccc1OP(=O)(Nc1ccc(C)cn1)Oc1ccccc1OC | inactive: 2.57% |
| Cc1ccc(N/C(=N/P(=O)(N2CCOCC2)N2CCOCC2)N2CCOCC2)cc1 | inactive: -2.37% |
| CN(C(=O)Cc1ccc(Cl)c(Cl)c1)[C@H]1CCCC[C@H]1N1CCCC1 | inactive: -4.75% |
| NC(=O)c1cc([N+](=O)[O-])cc([N+](=O)[O-])c1N | inactive: -0.92% |
| O=[N+]([O-])c1cc(Oc2ccc([N+](=O)[O-])cc2C(F)(F)F)cc([N+](=O)[O-])c1 | inactive: -4.88% |
| COc1ccc(N/C(=N/P(=O)(N2CCOCC2)N2CCOCC2)N2CCOCC2)cc1 | inactive: -3.52% |
| O=P1(N(CCCl)CCCl)Nc2ccccc2N1 | inactive: -4.47% |
| O=P1(N(CCCl)CCCl)OCCCN1CCCl (configuration not stated) | inactive: 1.76% |
| COc1cc(I)ccc1[As](=O)(O)O | inactive: 0.56% |
| COc1ccc2nc(NP(=O)(c3ccccc3)c3ccccc3)sc2c1 | inactive: -5.02% |
| Cc1c2c(nc3ccccc13)SC(C(Cl)Cl)C2 (configuration not stated) | inactive: -0.9% |
| Cc1cc(=O)[nH]c(N[N+](=O)[O-])n1 | inactive: 1.92% |
| O=C(OC1CN2CCC1CC2)C12CC3CC(CC(C3)C1)C2 (configuration not stated) | inactive: -0.52% |
| O=C(OC1CN2CCC1CC2)c1cccc2[nH]cnc12 (configuration not stated) | inactive: 0.22% |
| CCN(CC)C(=S)SC(NC=O)C(Cl)(Cl)Cl (configuration not stated) | inactive: 3.77% |
| CC(C)NC(=O)NP(=O)(Oc1ccccc1)Oc1ccccc1 | inactive: 8.21% |
| ClCCSc1nnc(-c2cccnc2)o1 | inactive: 2.87% |
| CC(C)c1ccc(OP(=O)(Nc2ccccn2)Oc2ccccc2F)cc1 (configuration not stated) | inactive: -1.28% |
| COC(=O)C1(C)COP(=O)(N2CCCCCC2)OC1 (configuration not stated) | inactive: -2.03% |
